Laboratory results taken from ChEMBL document CHEMBL1817551, “Design of small molecule inhibitors of acetyl-CoA carboxylase 1 and 2 showing reduction of hepatic malonyl-CoA levels in vivo in obese Zucker rats” (Bioorg Med Chem, 2011).

Columns and labels:
Acetyl-CoA carboxylase 1 = Acetyl-CoA carboxylase 1 (Rattus norvegicus, UniProt P11497); test: Inhibition of rat ACC1 assessed as inorganic phosphate generation preincubated for 5 mins measured after 1.5 hrs using Malachite green reagent method
[1] = target: Acetyl-Coenzyme A carboxylase 2 (Rattus norvegicus, UniProt Q1HEC0); test: Inhibition of ACC2 […] preincubated for 15 mins measured after 1.5 hrs using Malachite green reagent method

Structure (SMILES): O=C(c1c2ccccc2cc2ccccc12)N1CCC(N2CCC[C@@H](C(=O)N3CCOCC3)C2)CC1
- IC50 (Acetyl-CoA carboxylase 1): 230 nM
- IC50 [1]: 170 nM
